Patent US20100256233A1, “SYSTEMS, METHODS AND COMPOSITIONS FOR REDUCTION OF INJURY FROM RADIATION EXPOSURE” (priority 2007, published 2010)
“Also recorded” adds a separate entry of the source.

Key:
[1] = tested on: acetylation of histone H3; assay: Western blot of acetylated histones in bone marrow after HDACi administration (HDACi activity); type: in vivo, mouse; details: 10 h after first dose and 5 h after second dose, s.c., TSA 0.5 + 0.5 mg/kg, VPA 600 + 300 mg/kg
Experimental: Western blot analyses were used to confirm the activity of VPA and TSA. Histone H3 and H4 acetylation activity of fresh mouse spleen and bone marrow after administration of VPA or TSA was measured by Western blot analyses ex vivo. Mice were administered two doses of HDAC inhibitors subcutaneously, one dose at 0 h (TSA, 0.5 mg/kg; VPA, 600 mg/kg) and one dose at 5 h (TSA, 0.5 mg/kg; VPA, 300 mg/kg). […] or spleens were harvested at 10 h.
VPA is a class I HDAC inhibitor and is expected to increase acetylation of histone H3. TSA is not selective and is expected to increase acetylation of histones non-specifically. FIG. 1 is a graph showing the acetylation of histone H3 relative to a beta-actin control in test samples. […] Bars indicate individual mice. These studies established that both TSA and VPA acetylated histones in our model at the doses used.

bone marrow stem cells = assay: Spleen colony-forming assay after sublethal TBI; type: in vivo, BALB/c mice; details: 5.5 Gy TBI, 400 mg/kg i.p. 1 h after X rays, 12 days after irradiation, P<0.001
Experimental: Twelve days after exposure to 5.5 Gy alone or in combination with either valproic acid (400 mg/kg administered i.p. 1 h after radiation exposure) or trichostatin A (0.5 mg/kg i.p. administered 1 h after radiation exposure), mice were anesthetized with ketamine (100 mg/kg) and xylazine (10 mg/kg) for blood collection. Blood (0.5 ml) obtained by cardiac puncture with a 25-gauge needle was placed into heparinized anticoagulant tubes and shipped to ANTECH Diagnostics (Alsip, Ill.) for analysis of red and white blood cell counts using their CBC differential small mammalian protocol. The same mice were used for the spleen colony-forming assay.
The numbers of spleen colony-forming units were measured to assess the in vivo effect of HDACi on bone marrow cell survival. Groups of BALB/c mice were exposed to 5.5 Gy alone or in combination with HDACi as described. Spleens were excised and examined for colony formation 12 days after the sublethal TBI using a dissecting microscope.
The effect of HDAC inhibition on the survival of bone marrow stem cells was assayed using a variant of the spleen colony assay of Till and McCulloch in which endogenous nodules on the spleens of mice are counted after a sublethal dose of TBI (4-6). FIG. 2 illustrates the results.

BALB/c mice = assay: Lethality / survival after total-body irradiation (TBI); type: in vivo; details: for ED50 (time at which 50% of mice were dead): 7 Gy alone 13 days; for median survival: without VPA 12 days; for time to 50% lethality: 7 Gy alone day 13
Experimental: All studies were performed with prior approval and in accordance with institutional and national standards of animal care. The studies were approved by an Institutional Animal Care and Use Committee (“IACUC”) and were performed in an accredited AAALAC facility. Male BALB/c mice (Charles River Laboratories) 8 to 10 weeks old were allowed to acclimate for 1 week prior to the start of the study. Mice were maintained in environment-controlled (temperature and lighting) animal facilities, provided food and water ad libitum, and randomly assigned to experimental groups.
TBI was delivered using a 185 TBq (5000 Ci) ^137Cs source (Mark I, J. L. Shepherd and Associates, San Fernando, Calif.). Doses ranged from sublethal exposures of 5.5 Gy to lethal exposures of 6.5 Gy and a supralethal exposure of 7.0 Gy. The dose rate was approximately 1 Gy per minute.
Survival was measured in mice after TBI with and without HDACi. Groups of mice were exposed to 6.5 or 7.0 Gy alone or in combination with HDACi, as described above. Survival was defined as the time from irradiation to the time of euthanasia, which occurred when animals had lost 20% or more of their body weight.

## CCCC(CCC)C(=O)O [VPA, valproic acid]
[1]
  increase in acetylated form of histone H3 relative to the beta-actin control: three to four-fold increase
Bone marrow stem cells
  number of spleen colonies vs mice exposed to 5.5 Gy alone: sevenfold higher
BALB/c mice; 6.5 Gy TBI, VPA 600 mg/kg 24 h before, n=4
  survival: 100%
BALB/c mice; 6.5 Gy TBI, VPA 600 mg/kg 24 h before, one-sided logrank P<0.05
  survival: increased survival significantly
BALB/c mice; 6.5 Gy TBI, VPA one day before radiation exposure (FIG. 3)
  deaths after TBI: no mice died
BALB/c mice; 7 Gy TBI, VPA 400 mg/kg 1 h after (FIG. 6)
  survival time relative to TBI alone: increase in survival
BALB/c mice; 7 Gy TBI, VPA 400 mg/kg 1 h after, n=12
  ED50 (time at which 50% of mice were dead): 26.5 days
BALB/c mice; 7 Gy TBI, VPA 400 mg/kg 4 h after (FIG. 6)
  survival time relative to TBI alone: increase in survival
BALB/c mice; 7 Gy TBI, VPA 400 mg/kg 24 h before (FIG. 6)
  survival time relative to TBI alone: increase in survival
BALB/c mice; 7 Gy TBI, VPA 400 mg/kg 24 h before, n=17
  ED50 (time at which 50% of mice were dead): 17 days
BALB/c mice; 7 Gy TBI, VPA 400 mg/kg
  median survival: 14 days
BALB/c mice; 7.0 Gy TBI, VPA 600 mg/kg 1 h after, P<0.0001
  survival: increased survival significantly
BALB/c mice; 7.0 Gy TBI, VPA 600 mg/kg 24 h before, P<0.0001
  survival: increased survival significantly
BALB/c mice; 7 Gy TBI, VPA 600 mg/kg
  median survival: 17 days
BALB/c mice; 7 Gy TBI, VPA 400 or 600 mg/kg
  fraction of mice surviving for at least 2 months: about half
BALB/c mice; 7 Gy TBI, VPA 1 h after TBI, dose of at least 400 mg/kg
  survival: increased survival
BALB/c mice; 7 Gy TBI, VPA 1 hour after radiation (FIG. 4)
  time to 50% lethality: 23 days
BALB/c mice; 7 Gy TBI, VPA given 1 day before TBI (FIG. 4)
  time to 50% lethality: 17 days
BALB/c mice; 7 Gy TBI, VPA single dose 200 mg/kg, 200 mg/kg
  survival: not effective; also recorded: yielded no benefit
BALB/c mice; VPA given 1 h before radiation exposure (data not shown)
  survival: survival was not increased
BALB/c mice; after TBI
  lethality (time for mice to lose 20% or more of their weight): reduce lethality in a dose-dependent manner
BALB/c mice; whole-body radiation 5.5 to 7.0 Gy, VPA 400 or 600 mg/kg before or after TBI
  survival: increase in survival
